Data as given in ChEMBL document CHEMBL5726792, “Biaryl kinase inhibitors” (2018).

Protein sequences, listed by entry. Tags and fused reporters are not part of them. Lines headed by an entry give the natural chain unless they say otherwise; changes in a name come on top.
UniProt Q2M2I8: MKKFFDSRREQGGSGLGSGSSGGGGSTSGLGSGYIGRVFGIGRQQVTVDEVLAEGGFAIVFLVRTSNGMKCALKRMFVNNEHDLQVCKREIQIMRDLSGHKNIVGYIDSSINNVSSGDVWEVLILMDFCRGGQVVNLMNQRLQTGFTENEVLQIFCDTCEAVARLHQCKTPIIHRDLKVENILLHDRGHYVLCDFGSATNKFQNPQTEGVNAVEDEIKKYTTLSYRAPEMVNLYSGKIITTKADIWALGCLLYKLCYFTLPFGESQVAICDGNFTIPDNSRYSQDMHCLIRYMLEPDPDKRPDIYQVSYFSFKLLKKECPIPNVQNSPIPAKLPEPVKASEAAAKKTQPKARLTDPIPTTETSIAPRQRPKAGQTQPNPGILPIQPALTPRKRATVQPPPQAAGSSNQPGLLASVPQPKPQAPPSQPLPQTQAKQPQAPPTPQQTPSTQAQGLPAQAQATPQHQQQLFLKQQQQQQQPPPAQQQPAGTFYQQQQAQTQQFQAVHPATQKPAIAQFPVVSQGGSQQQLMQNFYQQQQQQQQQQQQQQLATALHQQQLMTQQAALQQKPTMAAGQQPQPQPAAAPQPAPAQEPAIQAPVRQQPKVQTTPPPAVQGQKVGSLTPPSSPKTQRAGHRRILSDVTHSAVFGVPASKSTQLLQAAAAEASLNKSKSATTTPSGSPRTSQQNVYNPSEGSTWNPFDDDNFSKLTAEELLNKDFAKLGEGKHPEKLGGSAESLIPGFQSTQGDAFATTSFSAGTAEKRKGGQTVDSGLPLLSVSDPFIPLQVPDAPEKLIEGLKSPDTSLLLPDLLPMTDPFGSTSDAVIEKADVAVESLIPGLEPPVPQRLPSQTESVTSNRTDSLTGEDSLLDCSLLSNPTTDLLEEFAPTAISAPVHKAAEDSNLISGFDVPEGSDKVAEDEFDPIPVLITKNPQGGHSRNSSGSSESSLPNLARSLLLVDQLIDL

Target: AP2-associated protein kinase 1 (Homo sapiens, UniProt Q2M2I8)
Assay: The reactions were initiated by the combination of bacterially expressed, GST-Xa-hAAK1 with substrates and test compounds. The reactions were incubated at room temperature for 3 hours and terminated by adding 60 μl of 35 mM EDTA buffer to each sample. […] Compounds were dissolved at 10 mM in dimethylsulfoxide (DMSO) and evaluated at eleven concentrations.

## CC(C)C[C@](C)(N)COc1cnc(-c2ccnc(Cl)c2)cc1Cl
  IC50: 2.2 nM

## CC(C)C[C@](C)(N)COc1cnc(-c2ccncc2)cc1Cl
  IC50: 3.2 nM
